Target: PIK3CB (Human) (UniProt P42338)

Chains of the proteins cited; added tags and fusions are not shown. Lines headed by an entry give the natural chain unless they say otherwise; changes in a name come on top.
UniProt P42338: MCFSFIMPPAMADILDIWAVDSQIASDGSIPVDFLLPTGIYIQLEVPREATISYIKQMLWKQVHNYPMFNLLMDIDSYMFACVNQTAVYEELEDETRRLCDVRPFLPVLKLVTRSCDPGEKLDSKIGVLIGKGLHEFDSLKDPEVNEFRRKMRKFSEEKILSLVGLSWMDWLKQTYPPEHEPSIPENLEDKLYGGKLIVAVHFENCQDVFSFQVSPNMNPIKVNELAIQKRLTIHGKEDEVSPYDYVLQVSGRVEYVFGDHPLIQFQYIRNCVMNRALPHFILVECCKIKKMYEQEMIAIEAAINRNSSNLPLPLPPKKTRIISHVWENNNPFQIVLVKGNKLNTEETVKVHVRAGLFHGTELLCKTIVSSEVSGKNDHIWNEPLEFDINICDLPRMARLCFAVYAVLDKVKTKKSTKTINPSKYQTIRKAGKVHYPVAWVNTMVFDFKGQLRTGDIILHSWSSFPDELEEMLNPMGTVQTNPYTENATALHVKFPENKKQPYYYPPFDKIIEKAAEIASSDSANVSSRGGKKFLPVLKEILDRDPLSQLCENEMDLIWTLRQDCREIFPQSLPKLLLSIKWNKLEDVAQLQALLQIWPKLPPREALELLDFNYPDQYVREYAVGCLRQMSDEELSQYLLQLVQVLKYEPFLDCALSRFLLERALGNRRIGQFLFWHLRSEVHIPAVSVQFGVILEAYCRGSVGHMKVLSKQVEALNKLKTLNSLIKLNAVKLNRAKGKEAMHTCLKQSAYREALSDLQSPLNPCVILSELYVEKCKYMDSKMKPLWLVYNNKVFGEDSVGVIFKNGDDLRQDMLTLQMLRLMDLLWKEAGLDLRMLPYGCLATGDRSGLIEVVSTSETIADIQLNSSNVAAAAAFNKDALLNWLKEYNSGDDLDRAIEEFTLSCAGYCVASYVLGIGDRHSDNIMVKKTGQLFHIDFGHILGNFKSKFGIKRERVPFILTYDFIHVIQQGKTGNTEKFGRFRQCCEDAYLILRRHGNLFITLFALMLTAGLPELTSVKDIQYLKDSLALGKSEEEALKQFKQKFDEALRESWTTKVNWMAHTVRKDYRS

| Compound | IC50 |
| --- | --- |
| Nc1ncnc2[nH]nc(-c3cccc(Oc4ccccc4)c3)c12 | > 50 µM |
| Nc1ncnc2[nH]nc(-c3ccc(Oc4ccccc4)cc3)c12 | > 50 µM |

Reference: the Kinase Knowledgebase extract (Sharma et al. 2016)
